Laboratory results published in US11344546B2, “Benzamide compounds” (Recurium IP Holdings, LLC, priority 2018, dated 2022).

Tested on: HIV-1 (IIIB strain) infected primary CD4 T cells
Experiment: Measurement of caspase release in mock and HIV-1 (IIIB strain) infected CD4 cells
Assay type: cell-based, human
Details: HIV-1IIIb vs mock infected, IncuCyte Caspase 3/7, FIG. 5

CC1(C)CCC(CN2CCN(c3ccc(C(=O)NS(=O)(=O)c4ccc(OCC5(F)CCOCC5)c([N+](=O)[O-])c4)c(Oc4cnc5[nH]ccc5c4)c3)CC2)=C(C23CC(C(F)F)(C2)C3)C1 [Example 36, 2-((1H-pyrrolo[2,3-b]pyridin-5-yl)oxy)-4-(4-((2-(3-(difluoromethyl)bicyclo[1.1.1]pentan-1-yl)-4,4-dimethylcyclohex-1-en-1-yl)methyl)piperazin-1-yl)-N-((4-((4-fluorotetrahydro-2H-pyran-4-yl)methoxy)-3-nitrophenyl)sulfonyl)benzamide]
selectivity in killing HIV vs. mock infected cells (Caspase 3/7 cell death): exhibit selectivity in killing HIV vs. mock infected cells
